## AlphaSeq binding of Ab-14 light chain variants to a spike HR2 peptide

Source: Engelhart et al. 2022 (doi:10.1038/s41597-022-01779-4), MIT Lincoln Laboratory and A-Alpha Bio; data file from the FLAb repository.

Target: peptide PDVDLGDISGINAS, taken from heptad repeat 2 (HR2) of SARS-CoV-2 spike.

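The starting antibody came from a phage panning campaign against this peptide. Library AAYL50 holds single substitutions and randomly drawn double and triple substitutions in the CDRs. The scFvs were displayed on barcoded MATa yeast, the peptide on MATalpha yeast. The frequency of each diploid, read from paired DNA barcodes, reflects how well the two displayed proteins bind. A regression on co-assayed BCL2-family reference pairs converts the normalised counts of each replicate to an apparent Kd. The assay was run in three technical replicates.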

Ab-14 is the parent antibody, in scFv form: VH, then a 15-residue (Gly4Ser)3 linker, then VL. The heavy chain is unchanged in all variants.
VH: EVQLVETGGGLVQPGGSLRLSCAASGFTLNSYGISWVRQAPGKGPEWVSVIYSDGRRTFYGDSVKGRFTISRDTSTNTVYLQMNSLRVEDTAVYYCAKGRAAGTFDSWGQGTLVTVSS
VL: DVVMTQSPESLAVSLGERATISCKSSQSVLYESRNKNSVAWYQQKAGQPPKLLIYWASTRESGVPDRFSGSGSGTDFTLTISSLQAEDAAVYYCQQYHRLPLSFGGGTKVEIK

The parent's light chain CDRs are KSSQSVLYESRNKNSVA, WASTRES, QQYHRLPLS; each variant's own CDRs replace them letter for letter.
Values are log10 of the apparent Kd in nM; lower means stronger binding.
Averages over replicates are reported, and they cover detected replicates only.
Where no diploid with the target was found in any replicate, the entry reads "not detected": below detection, most likely a poor binder, though not proof of it.
Entries are sorted by rising average, undetected variants last.
Nonspecific signal, from three strains lacking the peptide, appeared in 18% of pairings of library AAYL50, centred on 4.19 (5% of these signals below 2.99); values are not corrected for it. For each scFv, signals with the empty controls are counted beside the result.

CDR-L1,CDR-L2,CDR-L3,"log10 Kd (nM), mean",detected,signal with controls
KSSQSALYESRNKNSVA,WASTRVS,QQYMRLPLS,0.06,3/3,1/9
KSQQSDLYMSRNKNSVA,WASTRES,QQYHRLPLS,0.22,3/3,3/9
WSSQSLLYESRNKNSVA,HASTRES,QQYHRLPLS,0.35,3/3,1/9
KSSQPLMYESRNKNSVA,WASTRES,QQYHRLPLS,0.54,3/3,2/9
KSSQSVGNESRNKNSVA,WASTRES,QQYHSLPLS,0.54,3/3,5/9
MSSDSVLYESRNKNSVA,RASTRES,QQYHRLPLS,0.57,3/3,1/9
KSSQSVLDEHRNKNSVA,WATTRES,QQYHRLPLS,0.57,3/3,0/9
KSSESVLYESRNHNSVA,WASTRES,QQYHRLPLS,0.68,3/3,0/9
KSNQSVLAESRNKNSVA,WASTRCS,QQYHRLPLS,0.70,3/3,1/9
KSSQSVLYEMRNKNSVA,KASTRES,QQYHRLPLA,0.72,3/3,7/9
KSSQSVLQESRNKNSVA,WASTRLS,QQYHRLPLS,0.92,3/3,3/9
KSSQSKLYESGNVNSVA,WASTRES,QQYHRLPLS,0.97,3/3,1/9
KSSQSVLYESGNKNSVA,MASTRKS,QQYHRLPLS,1.07,3/3,4/9
KSSQSVLYESRNLNSVA,WASTRES,QQKHRLPLM,1.11,3/3,3/9
KSSQSVLYESMNLNSVA,WASSRES,QQYHRLPLS,1.16,3/3,0/9
KSSQSVLVESRNKNSVA,WMSTRED,QQYHRLPLS,1.28,3/3,1/9
KSSMSVLYESRNKNSVA,WASTRHI,QQYHRLPLS,1.29,3/3,0/9
KPSQIVLYESRNKNSVA,WATTRES,QQYHRLPLS,1.43,3/3,0/9
KSSDSVLIESRNKNSVA,WASTRES,QNYHRLPLS,1.53,3/3,1/9
KSSQSDLYESRNKNSLA,WATTRES,QQYHRLPLS,1.54,3/3,0/9
KSPQSLLYESRNKNSGA,WASTRES,QQYHRLPLS,1.57,3/3,1/9
KSSFSVLYESRPKNSVA,WASTRES,QQYHDLPLS,1.60,3/3,0/9
KSSPSLLYESRNKNSVA,WASTRES,QQYHRHPLS,1.79,3/3,1/9
KSSQWQLYESRNKNSVA,WASTRES,QQYHRRPLS,1.87,3/3,5/9
KSSQSVLYENRNKNSVA,WASTRES,VQYHRSPLS,1.99,3/3,2/9
KSSQSVLYESINKNSVA,WASTRES,QLYHRAPLS,2.18,3/3,5/9
KSSQSVLYSSRNKNSVA,TASTRES,QNYHRLPLS,2.35,3/3,2/9
KSSQSVLYEMRNKNSVA,WASTRES,QQYWRLPDS,2.49,2/3,2/9
KSSQSVLYESRNKNSVL,GASTRDS,QQYHRLPLS,2.52,1/3,0/9
KSSQSVLYESANKNSTA,WASTRER,QQYHRLPLS,2.80,3/3,2/9
KYSQSVLYASRNKNSVA,WASTRES,QQYHRLPGS,3.28,3/3,4/9
KSSQSVLYESRNKNSVA,WAITRES,QQKHPLPLS,3.33,3/3,5/9
KSSQSVLKESRNKNSVA,CASTRES,QQYHRLPLS,3.45,2/3,1/9
KSSQSVHYESRNKNSVA,WASTMES,QQYHLLPLS,3.55,2/3,1/9
KSSQSVLYESRYINSVA,WASTRES,QQYHRLFLS,3.57,2/3,4/9
KSSQSVLHESRNKNSVA,WASTRES,SQYHRLPLQ,3.67,3/3,3/9
KSSQSVLYPSRNKNSVA,WAETRES,QQYHRLMLS,3.78,1/3,2/9
KSSQSVKYEWRNKNSVA,WRSTRES,QQYHRLPLS,3.81,2/3,0/9
KSSQSVLYEARNKLSVA,WASDRES,QQYHRLPLS,3.87,3/3,7/9
KSSQSVLYEFRNKNSAA,WASTRES,QQYHRAPLS,3.88,1/3,2/9
ESSQSFLYEWRNKNSVA,WASTRES,QQYHRLPLS,4.07,3/3,2/9
KSSQSVLYESRNKNSVE,AASTRES,QQYHRLPLP,4.16,2/3,3/9
VSSQSQLYESRNKNSVA,WASTRES,QQRHRLPLS,4.20,2/3,0/9
KSSQSVLYESRNKNMVA,WAQTRES,QQYHRLPLS,4.21,3/3,3/9
KSSQSVLYEVRNKNSVA,WACTRES,QCYHRLPLS,4.36,1/3,3/9
KSSQSVLYESRNKNSVA,WAMTRWS,QQYHRLQLS,4.51,2/3,3/9
FSSQSVLYESRNKNSVA,WASTRES,QQYRRNPLS,4.61,1/3,1/9
KSSISVLYESRNKNSVE,WASTRES,QQYHRRPLS,4.67,2/3,7/9
KSSQSVLYESRNKNSVE,WASTRER,QQYHMLPLS,4.67,1/3,0/9
KTSQSVLYESRNFNSNA,WASTRES,QQYHRLPLS,4.71,3/3,2/9
KSSQHVLYESRNKNSVA,WCSTRES,QQYHRLYLS,5.26,3/3,4/9
KSSQFVLYESRNKNSVR,WASYRES,QQYHRLPLS,not detected,0/3,0/9
KSSQSVLYESRNKNSWA,WATTRES,QQYHRLPLS,not detected,0/3,1/9
KSSSSVLYESRNKNLVI,WASTRES,QQYHRLPLS,not detected,0/3,0/9
KSSQSVLYESRNKNSVW,WASTRKS,QTYHRLPLS,not detected,0/3,1/9
KSSQSVLMESRNKNSVA,WASTRES,QQYHRLMLK,not detected,0/3,3/9
KSSQSVLYEVRNKNSVA,WASTREA,QQYHRLYLS,not detected,0/3,0/9
KSSQSVLYESRNKNSVM,WASTRTS,QQYHRLYLS,not detected,0/3,0/9
KSSQSVLYESRNKNSVA,WASTRES,QQDHRLPGS,not detected,0/3,0/9
KFSQSVLYESRNKNSVQ,WANTRES,QQYHRLPLS,not detected,0/3,0/9
KSDQSVLYESRNKNSVA,WASTTES,QQYHRLPLS,not detected,0/3,2/9
KSIQSVLYESRWKNSVA,WASTYES,QQYHRLPLS,not detected,0/3,1/9
KSSQSVLYESCNFNSVA,WASTRES,QQYHREPLS,not detected,0/3,2/9
KSSQSVLYESRNKNIVA,WTSTRGS,QQYHRLPLS,not detected,0/3,0/9
KSSQSVLYESRNKNSVV,WASTRES,CQYHRLPRS,not detected,0/3,0/9
KSSKSVLYESRNKNQVA,WASTGES,QQYHRLPLS,not detected,0/3,0/9
KSSQSVLYESRNHNLVM,WASTRES,QQYHRLPLS,not detected,0/3,0/9
KNSQSVLYESRNKNSVW,WASTREV,QQYHRLPLS,not detected,0/3,1/9
KSSISVLYESRTKNSVV,WASTRES,QQYHRLPLS,not detected,0/3,0/9
KSAQSVLYESRNKNSHA,WASTRES,QQYHRNPLS,not detected,0/3,0/9
LSSQSVLYESRNKNKVA,WASTRES,QNYHRLPLS,not detected,0/3,0/9
KSSQSVLYESRNFNSVA,WASTRES,QQYHRLPNI,not detected,0/3,1/9
VSHQSVLYESRNKNSVA,WASRRES,QQYHRLPLS,not detected,0/3,0/9
KSSQSVFYESRNKNSVA,WASTRES,DQYHRLPLS,not detected,0/3,0/9
KSSQSVLYESRNKQSVA,WASTRES,QQYHRLPLD,not detected,0/3,1/9
KSSQSVYYESRNKNYVE,WASTRES,QQYHRLPLS,not detected,0/3,2/9
KSSQSVLYLSRNKNLVA,WASTRES,QQYHRLPPS,not detected,0/3,0/9

Excerpt, the final 7 entries:

CDR-L1,CDR-L2,CDR-L3,"log10 Kd (nM), mean",detected,signal with controls
LSSQSVLYESRNKNKVA,WASTRES,QNYHRLPLS,not detected,0/3,0/9
KSSQSVLYESRNFNSVA,WASTRES,QQYHRLPNI,not detected,0/3,1/9
VSHQSVLYESRNKNSVA,WASRRES,QQYHRLPLS,not detected,0/3,0/9
KSSQSVFYESRNKNSVA,WASTRES,DQYHRLPLS,not detected,0/3,0/9
KSSQSVLYESRNKQSVA,WASTRES,QQYHRLPLD,not detected,0/3,1/9
KSSQSVYYESRNKNYVE,WASTRES,QQYHRLPLS,not detected,0/3,2/9
KSSQSVLYLSRNKNLVA,WASTRES,QQYHRLPPS,not detected,0/3,0/9